Test results published in US20060142348A1, “Aryl sulfonamide peri-substituted bicyclics for occlusive artery disease” (deCODE Chemistry, Inc., priority 2004, published 2006).

By UniProt entry, the sequences of proteins in these tests, tags left out. Where a name states a change or a piece, a line headed by the entry shows the natural chain unless it says otherwise.
UniProt P43115: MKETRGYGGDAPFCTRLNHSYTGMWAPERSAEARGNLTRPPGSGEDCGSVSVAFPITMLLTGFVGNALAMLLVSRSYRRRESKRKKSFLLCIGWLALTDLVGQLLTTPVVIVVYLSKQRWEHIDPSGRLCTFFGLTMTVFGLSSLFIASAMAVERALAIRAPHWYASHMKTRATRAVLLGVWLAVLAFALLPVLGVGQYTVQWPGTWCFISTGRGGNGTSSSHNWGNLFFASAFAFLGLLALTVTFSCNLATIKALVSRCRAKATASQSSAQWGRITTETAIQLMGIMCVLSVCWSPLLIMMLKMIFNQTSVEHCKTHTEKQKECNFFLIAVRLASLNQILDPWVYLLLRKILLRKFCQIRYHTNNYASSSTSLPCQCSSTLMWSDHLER

Target: prostanoid EP3 receptors (Homo sapiens, UniProt P43115)
Assay: binding on prostanoid EP3 receptors (method of Abramovitz et al.)
Details: read-out: Activity (EP3 receptor binding IC50)
Description: The compounds of the invention may be assayed for their binding on prostanoid EP3 receptors according to the method of Abramovitz et al. [Bioch. Biophys. Actas 1473, 285-293 (2000)]. All of the examples in the tables below have been synthesized, characterized and tested for EP3 receptor binding.
The compounds of the invention were assayed for their binding on prostanoid EP3 receptors according to the method of Abramovitz et al. [Bioch. Biophys. Acta, 1473, 285-293 (2000)]. […] Compounds with IC50<1 μM are shown as +++; compounds with IC50<1-10 μM are shown as ++; and compounds with IC50>10 μM are shown as +.

SMILES | IC50
Cc1cn(Cc2ccc(Cl)cc2Cl)c2c(-c3nnc(NP(=O)(Oc4ccc(Cl)cc4Cl)Oc4ccc(Cl)cc4Cl)o3)cc(F)cc12 | > 10 µM
Cc1cn(Cc2ccc(Cl)cc2Cl)c2c(-c3nnc(NP(=O)(c4ccccc4)c4ccccc4)o3)cc(F)cc12 | > 10 µM
